# Assay results reported in PubChem BioAssay AID687016 (The Scripps Research Institute Molecular Screening Center, 2013).
# Protein sequences, listed by entry. Tags and fused reporters are not part of them.
# UniProt Q96T88, whole entry: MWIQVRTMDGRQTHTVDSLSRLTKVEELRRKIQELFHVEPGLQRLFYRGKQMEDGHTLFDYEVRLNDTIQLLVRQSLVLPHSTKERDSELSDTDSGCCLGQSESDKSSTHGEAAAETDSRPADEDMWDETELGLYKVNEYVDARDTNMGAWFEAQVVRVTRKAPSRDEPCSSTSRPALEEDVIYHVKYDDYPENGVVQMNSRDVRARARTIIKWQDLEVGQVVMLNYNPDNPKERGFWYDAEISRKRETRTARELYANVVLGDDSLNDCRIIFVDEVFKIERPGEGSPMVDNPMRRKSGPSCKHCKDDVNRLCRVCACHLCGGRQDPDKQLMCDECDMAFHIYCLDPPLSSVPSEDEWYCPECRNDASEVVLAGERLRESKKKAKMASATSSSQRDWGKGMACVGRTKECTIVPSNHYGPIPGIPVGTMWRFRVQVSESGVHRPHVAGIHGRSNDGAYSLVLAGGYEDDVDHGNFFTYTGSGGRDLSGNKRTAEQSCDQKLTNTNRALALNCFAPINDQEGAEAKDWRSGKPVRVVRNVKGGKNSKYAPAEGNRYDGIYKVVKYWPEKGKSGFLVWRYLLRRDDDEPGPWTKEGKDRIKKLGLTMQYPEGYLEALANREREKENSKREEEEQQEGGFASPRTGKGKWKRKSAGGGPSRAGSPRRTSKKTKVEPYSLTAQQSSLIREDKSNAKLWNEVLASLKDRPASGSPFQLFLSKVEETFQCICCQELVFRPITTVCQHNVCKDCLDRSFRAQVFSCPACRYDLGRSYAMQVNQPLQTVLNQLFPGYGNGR
# The list shows a part of the results, in another mix than the full data. Some salts and complexes are drawn in separate pieces, as the source files them; their charges need not balance. Active and inactive are the calls of the source. Rule as the data show it: active = inhibition above about 21%; inactive = the rest.
# Target: E3 ubiquitin-protein ligase UHRF1 (Homo sapiens) (UniProt Q96T88)
# Assay: blockers of UHRF1 binding to methyl-oligo – biochemical, TR-FRET, human UHRF1, single concentration, counter-screen for MBD2 inhibitor project, primary screen (AID 687016);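 also: UHRF1 SRA domain binding a hemimethylated CpG hairpin DNA probe; 0% = median of test compound wells and 100% = reference inhibitor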
# Conditions: UHRF1 binding to methylated oligo, at 4.4 µM, active compounds read high
row,SMILES,inhibition
1,Cc1ccccc1NP(C)(=O)Nc1ccccc1C,inactive: -1.35%
2,O=[N+]([O-])c1cc([N+](=O)[O-])c(C(F)(F)F)c([N+](=O)[O-])c1O,inactive: 1.83%
3,CP(=O)(Nc1ccc2c(c1)OCCO2)Oc1ccccc1 (stereo not drawn),inactive: -2.2%
4,CCOP(C)(=S)SCC(=O)NC(C)(CC)C(=O)O (stereo not drawn),inactive: -2.39%
5,CCOP(=O)(CC)OCC,inactive: 3.17%
6,CP(=O)(Nc1ccc(SC(F)(F)F)cc1)Oc1ccc(F)cc1 (stereo not drawn),inactive: 1.36%
7,Cc1c(C(c2ccc3c(c2)OCO3)c2c(C)n(C)n(-c3ccccc3)c2=O)c(=O)n(-c2ccccc2)n1C.O=[N+]([O-])c1cc([N+](=O)[O-])c(O)c([N+](=O)[O-])c1,inactive: 2.05%
8,O=[N+]([O-])c1ccc(OP2(=O)COCCO2)cc1 (stereo not drawn),inactive: -0.78%
9,O=[N+]([O-])c1cc([N+](=O)[O-])c(NCC2CCS(=O)(=O)C2)c([N+](=O)[O-])c1 (stereo not drawn),inactive: 0.04%
10,Cc1cc(-c2cccc3ccccc23)c(C)cn1.O=[N+]([O-])c1cc([N+](=O)[O-])c(O)c([N+](=O)[O-])c1,inactive: -2.27%
11,CN(C)CCOC(=O)C(O)(c1ccccc1)C1CCCCC1 (stereo not drawn),inactive: 6.73%
12,COc1ccc(NP(C)(=O)Oc2ccccc2OC)cc1 (stereo not drawn),inactive: -2.22%
13,COc1ccc(OP(C)(=O)Nc2cccc(Br)c2)cc1 (stereo not drawn),inactive: 2.53%
14,CP(=O)(Nc1ccccc1)Oc1ccc(F)cc1 (stereo not drawn),inactive: -0.62%
15,CCCCCOc1ccc(NP(C)(=O)Oc2ccc(Cl)cc2Cl)cc1 (stereo not drawn),inactive: -0.25%
16,O=[N+]([O-])c1cc([N+](=O)[O-])c(OC2CCCCC2O)c([N+](=O)[O-])c1 (stereo not drawn),inactive: -2.44%
17,Cc1c([N+](=O)[O-])cc([N+](=O)[O-])c(Br)c1[N+](=O)[O-],inactive: 0.4%
18,CCN(CC)CCCOC(=O)C(O)(c1ccccc1)C1CCCCC1 (stereo not drawn),inactive: 7.04%
19,CCOC(=O)c1ccc(NP(C)(=O)Oc2ccc(F)cc2)cc1 (stereo not drawn),inactive: 2.19%
20,COc1ccc(OP(C)(=O)Nc2ccc(SC(F)(F)F)cc2)cc1 (stereo not drawn),inactive: 0.98%

row,SMILES,inhibition
1,CCN(CC)CCCNc1ccccc1[N+](=O)[O-].O=[N+]([O-])c1cc([N+](=O)[O-])c(O)c([N+](=O)[O-])c1,inactive: -10.4%
2,COc1ccc2c(c1O)-c1c(O)c(OC)cc3c1[C@H](C2)[N+](C)(C)CC3.O=[N+]([O-])c1cc([N+](=O)[O-])c([O-])c([N+](=O)[O-])c1[O-],inactive: -0.12%
3,O=C(OC1CN2CCC1CC2)c1ccc([N+](=O)[O-])cc1 (stereo not drawn),inactive: 4.34%
4,O=C(OCCN1CCN(CCOCc2ccccc2)CC1)C(O)(c1ccccc1)c1ccccc1,inactive: 1.83%
5,CP(=O)(Nc1ccccc1F)Oc1ccccc1 (stereo not drawn),inactive: 4.85%
6,CC(C)c1ccc(OP(C)(=O)Nc2ccc(SC(F)(F)F)cc2)cc1 (stereo not drawn),inactive: -1.81%
7,O=[N+]([O-])c1cc([N+](=O)[O-])c(Nc2ccc(Cl)cc2)c([N+](=O)[O-])c1,inactive: -5.04%
8,COc1ccccc1OP(C)(=O)Nc1ccc(C)cc1C (stereo not drawn),inactive: 0.1%
9,CP(=O)(Nc1ccccn1)Oc1ccccc1 (stereo not drawn),inactive: -2.41%
10,CCc1ccc(OP(C)(=O)O)cc1,inactive: -1.98%
11,O=[N+]([O-])c1cc([N+](=O)[O-])c(Nc2ccccn2)c([N+](=O)[O-])c1,inactive: 0.65%
12,Cc1c(NP(C)(=O)Oc2ccc(C(C)C)cc2)c(=O)n(-c2ccccc2)n1C (stereo not drawn),inactive: 0.83%
13,COc1ccc(OP(C)(=O)Nc2ccccn2)cc1 (stereo not drawn),inactive: -3.95%
14,CN(C)CCOC(=O)C(O)(c1ccccc1)C1CCCC1 (stereo not drawn),inactive: -1.09%
15,COc1ccccc1OP(C)(=O)Nc1ccc(Br)cc1 (stereo not drawn),inactive: -1.6%
16,CP(=O)(OCCOc1ccccc1)OCCOc1ccccc1,inactive: 1.16%
17,CCCCCCCCCCCCCCCC1C[N+](C)(C)CCOP(C)(=O)O1 (stereo not drawn),inactive: 4.1%
18,CP(=O)(Nc1ccc(Cl)cc1Cl)Oc1ccccc1 (stereo not drawn),inactive: 3.96%
19,COc1ccccc1OP(C)(=O)Nc1ccc(C)c(C)c1 (stereo not drawn),inactive: -0.18%
20,COc1ccc(OP(C)(=O)Nc2ccccc2Br)cc1 (stereo not drawn),inactive: 0.11%

row,SMILES,inhibition
1,Cc1cc(C)cc(OP(C)(=O)Nc2cccc(C(F)(F)F)c2)c1 (stereo not drawn),inactive: -3.31%
2,O=C1C(O)=C([N+](=O)[O-])C(=O)C(O)=C1[N+](=O)[O-],active: 34.8%
3,CCOC(=O)c1ccc(NP(C)(=O)Oc2ccc(Cl)cc2)cc1 (stereo not drawn),inactive: 1.16%
4,CP(=O)(OC12CC3CC(CC(C3)C1)C2)OC12CC3CC(CC(C3)C1)C2,inactive: 4.47%
5,Nc1ccc2c(ccc3cccnc32)n1.O=[N+]([O-])c1cc([N+](=O)[O-])c(O)c([N+](=O)[O-])c1,inactive: -5.47%
6,CN(C)C(=O)c1c([N+](=O)[O-])cc([N+](=O)[O-])cc1[N+](=O)[O-],inactive: 6.74%
7,CC(C)(C)c1ccc(OP(C)(=O)O)cc1,inactive: -1.35%
8,COc1ccccc1OP(C)(=O)Nc1ccccc1Br (stereo not drawn),inactive: -1.16%
9,CP(=O)(Nc1ccc(Cl)cc1)Oc1ccc(F)cc1 (stereo not drawn),inactive: 6.73%
10,O=C(OCCCN1CCCC1)C(O)(c1ccccc1)C1CCCCC1 (stereo not drawn),inactive: 1.48%
11,COc1ccccc1OP(C)(=O)Nc1c(C)n(C)n(-c2ccccc2)c1=O (stereo not drawn),inactive: 0.16%
12,CCc1ccc(OP(C)(=O)Nc2cccnc2)cc1 (stereo not drawn),inactive: 2.11%
13,CP(=O)(Oc1ccccc1)N1CCOC1=O (stereo not drawn),inactive: -1.51%
14,COc1ccc(OP(C)(=O)Nc2ccc(Br)cc2)cc1 (stereo not drawn),inactive: 0.19%
15,CCN(CC)CC(O)COC(=O)C(O)(c1ccccc1)C1CCCCC1 (stereo not drawn),inactive: 0.34%
16,CP(=O)(Nc1ccccn1)Oc1ccc(Cl)cc1 (stereo not drawn),inactive: 1.2%
17,CCOC(=O)c1ccc(NP(C)(=O)Oc2ccc(OC)cc2)cc1 (stereo not drawn),inactive: 10.3%
18,O=[N+]([O-])c1cc([N+](=O)[O-])c(O)c([N+](=O)[O-])c1.c1ccc(Oc2ccncc2)cc1,active: 21.9%
